We go through one substance from US20230118642A1, “METHOD FOR TREATING THERAPY-RESISTANT MUC4+ CANCER” (CONSEJO NACIONAL DE INVESTIGACIONES CIENTÍFICAS Y TÉCNICAS, priority 2020, published 2023).

The test system of the assay is JIMT-1-shMUC4 tumor. Briefly: JIMT-1-shMUC4 tumor growth in female nude mice with or without doxycycline. Format: in vivo. To be noted: +doxycycline 2 mg/ml in drinking water (MUC4 knockdown); trastuzumab 5 mg/kg, XPRO1595 10 mg/kg i.p. twice a week. The procedure:
To evaluate the in vivo effect of MUC4 downregulation in trastuzumab-resistant tumors, we injected JIMT-shMUC4 cells in female nude mice. After the tumors were established, animals were randomly assigned to the experimental (+doxycycline 2 mg/ml in drinking water) or control group (-doxycycline). […] JIMT-1-sh-Control tumors with or without doxycycline administration behaved similar (FIG. 10C and FIG. 10D) to JIMT-1 wildtype tumors (FIG. 4A).

For the substance “trastuzumab: anti-HER2 monoclonal antibody used to treat breast cancer and stomach cancer”, the “inhibition of JIMT-1-shMUC4 tumor growth vs. IgG” value is recorded as 62%.
